Source: patent publication US6458758B1, “Compositions and methods utilizing nitroxides in combination with biocompatible macromolecules” (Synzyme Technologies, Inc., priority 1993, dated 2002)

Key:
[1] = system: Chinese Hamster V79 cells; assay: Radioprotection of Chinese Hamster V79 cells at 12 Gray; format: cell-based; conditions: 12 Gray x-ray; cells pretreated 10 minutes prior to irradiation
Method: FIG. 16 is a bar graph showing the surviving fraction of Chinese Hamster V79 cells at 12 Gray radiation. The V79 cells were pretreated 10 minutes prior to x-ray irradiation.
Based on a radiation dosage scale developed by the National Cancer Institute, chinese hamster cell cultures are exposed to ionizing radiation in the presence of radioprotective chemical agents.

[2] = system: mouse; assay: Protection against stroke injury in the mouse (MCA suture occlusion, PNA 1% v/w twice); format: in vivo
From the text: Chan, P. H., C. J. Epstein, H. Kinouchi, H. Kamii, G. Yang, S. F. Chen, J. Gafni, and E. Carlson (1994). SOD-1 transgenic mice as a model for studies of neuroprotection in stroke and brain trauma. Ann. N.Y. Acad. Sci. 738:93-103. Chan, P. H., C. J. Epstein, H. Kinouchi, S. Imaizumi, E. Carlson, and S. F. Chen (1993). Role of superoxide dismutase in ischemic brain injury: Reduction of edema and infarction in transgenic mice following focal cerebral ischemia. In Molecular Mechanisms of Ischemic Brain Damage, K. Kogure and B. K. Siesjo, eds. Amsterdam: Elsevier. pp. 97-104. Kinouchi, H., C. J. Epstein, T. Mizui, E. Carlson, S. F. Chen and P. H. Chan (1991). Attenuation of focal cerebral ischemic injury in transgenic mice overexpressing CuZn superoxide dismutase. Proc. Natl. Acad. Sci. USA 88:11158-11162. Imaizumi, S., V. Woolworth, and R. A. Fishman (1990). Liposome-encapsulated superoxide dismutase reduces cerebral infarction in cerebral ischemia in rats. Stroke 21: 1312-1317. Liu, T. H., J. S. Beckman, B. A. Freeman, E. L. Hogan, and C. Y. Hsu (1989). Polyethylene glycol-conjugated superoxide dismutase and catalase reduce ischemic brain injury. Am. J. Physiol. 256: H586-H593. Chan, P. H., S. Longar, and R. A. Fishman (1987). Protective effects of liposome-entrapped superoxide dismutase on post-traumatic brain edema. Ann. Neurol. 21: 540-547. […] Ten minutes later, the middle coronary artery (MCA) was occluded by luminal blockade using a nylon suture. After one hour of ischemia, reperfusion, and after 24 hours of reperfusion, animals were assessed for neurological function and sacrificed for histological measurement of infarction and edema. […] In contrast, in the brain of the treated mouse, the involved hemisphere is normal and symmetric with the contralateral one in terms of size, shape, and staining density. Serial sections as shown in FIG. 34C indicate the anatomic distribution of ischemic injury throughout the brain of a representative control animal, and the normal appearance of the brain of a representative treated animal. […] The following table summarizes data on the reduction in neurological deficit, percent infarction (calculated from infarction areas in serial sections), and hemisphere enlargement in the treated animals.

[3] = system: rats; assay: Transient MCA suture occlusion (2 h) and 22 h reperfusion in rats; format: in vivo, rat
Method: As a model of prophylactic therapy in the surgical/perioperative stroke setting, PNA was administered to mice both before MCA occlusion and after reperfusion. Because albumin alone may provide modest protection against cerebral ischemia, PNA was tested with both HSA and saline as controls.
Rats were subjected to 2 hours of suture occlusion of the MCA, followed by 22 hours of reperfusion. Drug or saline was administered IV in a total dose of 1% of body weight (v/w), divided as follows: ½ the total dose was given 5 minutes before MCA occlusion; ¼ of the total dose was given five minutes before the suture was removed to allow reperfusion of the MCA; and the final ¼ of the total dose was given 2 hours after reperfusion. Brain sections were stained with TTC.

[4] = In vivo EPR of mouse skin: intradermal PNA and intravenous ^15N-TPL; conditions: 5 minutes after intradermal PNA (100 μl, 10 g/dl) at the belly
Method: Thirty minutes later the spectrum in (C) was recorded.
The intensity of the low field ^15N-TPL peak is plotted against time. […]. The ^15N-TPL signal rose after injection, then fell sharply within 5 minutes, reflecting bioreduction.
FIGS. 42A and 42B show the pharmacokinetics of intravenous ^15N-TPL (1% v/w) measured at a patch of skin on the abdomen of the mouse. (A) The low field peak intensity rose and fell and fall within 5 minutes after the injection of ^15N-TPL.
A custom-built bridged loop-gap surface resonator, absorption microwave bridge was used for in vivo EPR spectroscopy at 1.25 GHz (L-band) in the mouse. […] The anesthetized mouse was placed in a ‘sandwich’ of two templates which allowed it to be placed on the loop-gap surface resonator, absorption microwave bridge in either the supine position, for spectroscopy of the back of the head, or in the prone position for spectroscopy of the abdomen. A tail vein cannula was used for intravenous injection of ^15N-TEMPOL; this injection site was remote from the resonator.
The spectrum was made 1 minute after ^15N-TPL was injected via the tail vein. […] FIG. 40B was recorded at approximately ⅕ of the instrument gain used in FIG. 40A in order to accommodate the ^15N-TPL signal.

[5] = Activation of TOPS by nitroxide-labelled proteins (ESR); format: biochemical; conditions: 50 mM TOPS, sodium phosphate buffer pH 7.8, 2 min
From the text: FIGS. 18B, 18C, and 18D are ESR spectra showing activation of TOPS by three different nitroxide-labelled human proteins. FIGS. 18B and 18D show TOPS activation by albumin labelled with different species of nitroxide. FIG. 18C is nitroxide-labelled hemoglobin-based oxygen carrier.
As noted herein, the donor/acceptor relationship between two nitroxide containing species provides the ability for sustained nitroxide protection in vivo. The interaction of PNA and TPL as described with several of the embodiments is only one example of additional combinations provided by the invention. […] Thus, as referred to elsewhere herein, the multiple component embodiments may be formulated with different nitroxides or nitroxide-based compounds with different free-electron stabilities.

[6] = system: conscious rats; assay: Mean arterial pressure response in conscious rats
[7] = mean ± S.E.M., 24 hours of reperfusion
[8] = total dose 1% of body weight iv, divided

PNA
surviving fraction of V79 cells [1]: 2% | protection against infarction ([2]; FIG. 32A): essentially complete protection | Neurological Deficit Score ([2]; mean rank of deficits, 24 hours of reperfusion): 2.0 | % Hemisphere Enlargement [2, 7]: 1.7 ± 0.9% | % infarction [2, 7]: 1.9 ± 1.9% | grossly visible infarction in stained coronal sections ([3]; rat, in vivo): no grossly visible infarction | % infarction [3, 8]: approximately 2±36% | mean infarct volume [3, 8]: 18±22 mm^3 | reoxidation of ^15N-TPH in skin [4]: essentially complete | activation of TOPS (ESR peak intensity) [5]: substantially greater peak intensity | vasodilatory effect ([6]; 10% v/v top load, PNA 5 g/dl, TPL 100 mM): no significant vasodilatory effect | antihypertensive effect when injected alone with HBOC ([6]; conscious rats): no antihypertensive effect
